# Data: US9181266B2, “2-piperidin-1-yl-acetamide compounds for use as tankyrase inhibitors” (NOVARTIS AG, priority 2011, dated 2015)
# Amino acid sequences for entries named in this document (tags omitted). A change or cut given only in a name is not applied to a line headed by its entry.
# UniProt O88554: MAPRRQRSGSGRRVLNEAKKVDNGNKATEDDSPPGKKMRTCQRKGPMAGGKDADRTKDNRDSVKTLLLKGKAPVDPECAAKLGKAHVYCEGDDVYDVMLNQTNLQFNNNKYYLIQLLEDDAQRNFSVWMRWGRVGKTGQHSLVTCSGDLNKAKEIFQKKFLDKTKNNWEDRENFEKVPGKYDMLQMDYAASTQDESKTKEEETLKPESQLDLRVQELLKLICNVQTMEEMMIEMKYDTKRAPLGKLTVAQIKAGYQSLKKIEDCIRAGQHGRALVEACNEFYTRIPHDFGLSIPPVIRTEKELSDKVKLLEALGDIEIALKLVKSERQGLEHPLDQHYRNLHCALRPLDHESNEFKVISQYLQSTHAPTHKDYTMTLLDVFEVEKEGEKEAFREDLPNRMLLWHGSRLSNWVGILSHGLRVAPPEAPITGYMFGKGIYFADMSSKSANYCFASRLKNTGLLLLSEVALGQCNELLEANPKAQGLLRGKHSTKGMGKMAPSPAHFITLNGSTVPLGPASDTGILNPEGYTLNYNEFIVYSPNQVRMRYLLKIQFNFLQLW
# UniProt P09874, whole entry: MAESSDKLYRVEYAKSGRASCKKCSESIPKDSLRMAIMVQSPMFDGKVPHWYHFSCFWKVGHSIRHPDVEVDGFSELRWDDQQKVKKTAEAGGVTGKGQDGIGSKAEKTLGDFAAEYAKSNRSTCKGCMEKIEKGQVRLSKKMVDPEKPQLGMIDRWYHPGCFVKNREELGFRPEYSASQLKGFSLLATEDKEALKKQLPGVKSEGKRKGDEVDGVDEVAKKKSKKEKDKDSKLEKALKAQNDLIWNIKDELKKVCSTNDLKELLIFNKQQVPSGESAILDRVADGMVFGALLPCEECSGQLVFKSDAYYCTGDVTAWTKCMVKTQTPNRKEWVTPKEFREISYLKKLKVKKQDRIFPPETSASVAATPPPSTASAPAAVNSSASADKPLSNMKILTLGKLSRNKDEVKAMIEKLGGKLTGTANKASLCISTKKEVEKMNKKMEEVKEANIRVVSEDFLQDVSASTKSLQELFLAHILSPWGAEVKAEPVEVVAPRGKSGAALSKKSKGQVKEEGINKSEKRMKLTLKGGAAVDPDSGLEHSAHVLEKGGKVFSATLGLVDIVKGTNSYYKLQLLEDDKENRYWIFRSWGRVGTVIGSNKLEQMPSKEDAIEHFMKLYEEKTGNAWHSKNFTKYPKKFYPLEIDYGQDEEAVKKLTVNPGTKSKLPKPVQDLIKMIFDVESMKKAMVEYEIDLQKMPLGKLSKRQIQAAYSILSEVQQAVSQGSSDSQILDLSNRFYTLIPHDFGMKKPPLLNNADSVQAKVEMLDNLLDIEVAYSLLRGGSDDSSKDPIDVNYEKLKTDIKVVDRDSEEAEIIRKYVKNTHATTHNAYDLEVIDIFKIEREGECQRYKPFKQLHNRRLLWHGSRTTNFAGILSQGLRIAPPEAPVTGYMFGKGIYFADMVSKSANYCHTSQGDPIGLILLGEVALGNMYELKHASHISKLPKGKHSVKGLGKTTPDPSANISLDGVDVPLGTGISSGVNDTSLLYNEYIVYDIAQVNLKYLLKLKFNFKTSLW
# Legend:
# [1] = biological target: PARP2 (Mus musculus (Mouse), UniProt O88554); assay: PARP2 autoparsylation assay (LC/MS detection of nicotinamide); type: biochemical; conditions: 20 nM enzyme, 250 μM β-NAD+, 60 min
# Description: (§1) The autoparsylation activity of the TNKS 1/2 or PARP1/2 enzymes was measured by the liquid chromatography-mass spectrometry (LC/MS) detection of nicotinamide as readout. Compound activity in inhibiting the TNKS and PARP autoparsylation was evaluated by IC50 measurements.
# [2] = biological target: Human PARP1 (Homo sapiens (Human), UniProt P09874); assay: PARP1 autoparsylation assay (LC/MS detection of nicotinamide); type: biochemical; conditions: 20 nM enzyme, 250 μM β-NAD+, 60 min
# Description: as §1
Compound,IC50 [1],IC50 [2]
"O=C(CN1CCC(C(=O)c2ccc(F)cc2)CC1)NCc1nc2c(c(=O)[nH]1)COCC2 [Example 1, 2-(4-(4-Fluorobenzoyl)piperidin-1-yl)-N-((4-oxo-4,5,7,8-tetrahydro-3H-pyrano[4,3-d]pyrimidin-2-yl)methyl)acetamide]",3.1 ± 1.1 µM,
"O=C(c1ccc(F)cc1)C1CCN(CC(=O)N(Cc2nc3c(c(=O)[nH]2)COCC3)Cc2cccs2)CC1 [Example 13, 2-(4-(4-Fluorobenzoyl)piperidin-1-yl)-N-((4-oxo-4,5,7,8-tetrahydro-3H-pyrano[4,3-d]pyrimidin-2-yl)methyl)-N-(thiophen-2-ylmethyl)acetamide]",> 19 µM,
"CC(C)CN(Cc1nc2c(c(=O)[nH]1)COCC2)C(=O)CN1CCC(C(=O)c2ccc(F)cc2)CC1 [Example 26, 2-(4-(4-Fluorobenzoyl)piperidin-1-yl)-N-isobutyl-N-((4-oxo-4,5,7,8-tetrahydro-3H-pyrano[4,3-d]pyrimidin-2-yl)methyl)acetamide]",> 19 µM,> 19 µM
"O=C(c1ccc(F)cc1)C1CCN(CC(=O)N(Cc2ccccc2)Cc2nc3c(c(=O)[nH]2)COCC3)CC1 [Example 38, N-Benzyl-2-(4-(4-fluorobenzoyl)piperidin-1-yl)-N-((4-oxo-4,5,7,8-tetrahydro-3H-pyrano[4,3-d]pyrimidin-2-yl)methyl)acetamide]",> 19 µM,
